For two compounds, inhibition results are on record in PubChem BioAssay AID488899 (Broad Institute, 2010).

The list shows a part of the results, in another mix than the full data. Activity calls are given as the source filed them.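 How the source made its calls: active means mean inhibition across replicates of 60% or more, whatever share of single replicates reaches that level; inconclusive means some that reach 60%, reason not given; inactive means mean inhibition across replicates below 60%.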

This assay can be described thus: inhibitors of MITF-dependent TRPM1 promoter reporter, primary screen, cell-based, SK-MEL-5, single point, luciferase (AID 488899). Particulars: SK-MEL-5 TRPM1 promoter luciferase, 24 h; at 12.5 µM; stronger effect = higher value.
Take `CCC(=O)N(c1ccccc1)C1(COC)CCN(CCn2nnn(CC)c2=O)CC1`: the inhibition (in general, the relative decrease from the control value, in per cent) is inactive: 3.45%.
Next, `CCC(=O)N(c1ccccc1)C1(COC)CCN(CCc2cccs2)CC1`: inactive: -2.16%.
